Here are results for 28 compounds from patent US12583836B2 (Anaxis Pharma Pty Ltd, priority 2020, dated 2026).

The Kd is the constant that tells how readily two partners part at equilibrium. A lower Kd goes with a tighter complex.

This experiment has as its target T1, MLKL (full length) (Homo sapiens, UniProt Q8NB16).
T1 construct: purchased DiscoverX (KINOMEscan service); host or cells: E. coli BL21-derived (T7 phage) or HEK293
T1 sequence (Q8NB16 1-471): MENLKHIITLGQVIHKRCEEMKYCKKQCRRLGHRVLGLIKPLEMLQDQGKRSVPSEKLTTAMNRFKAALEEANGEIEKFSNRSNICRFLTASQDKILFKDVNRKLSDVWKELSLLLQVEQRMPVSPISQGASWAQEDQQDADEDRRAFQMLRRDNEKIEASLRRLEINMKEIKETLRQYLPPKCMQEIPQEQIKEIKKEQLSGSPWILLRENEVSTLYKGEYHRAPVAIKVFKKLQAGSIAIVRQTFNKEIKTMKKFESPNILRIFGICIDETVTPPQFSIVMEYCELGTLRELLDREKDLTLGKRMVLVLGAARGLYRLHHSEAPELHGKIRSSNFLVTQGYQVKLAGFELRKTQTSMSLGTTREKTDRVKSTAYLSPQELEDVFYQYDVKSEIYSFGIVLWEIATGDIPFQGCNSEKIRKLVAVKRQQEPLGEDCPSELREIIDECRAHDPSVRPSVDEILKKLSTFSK
In words: KINOMEscan binding assay, MLKL. Conditions: equilibrium dissociation constant, class symbols.
`NC(=O)c1c(-c2ccc(NS(=O)(=O)CC(F)(F)F)c(Oc3ccc(Cl)cc3)c2)n[nH]c1Nc1cnccn1` [Compound 168, 3-(3-(4-chlorophenoxy)-4-((2,2,2-trifluoroethyl)sulfonamido)phenyl)-5-(pyrazin-2-ylamino)-1H-pyrazole-4-carboxamide]: the Kd is less than 10 nM.
The same measure for `NC(=O)c1c(-c2ccc(NS(=O)(=O)C3CC3)c(OCc3ccc(F)cc3)c2)n[nH]c1Nc1cnccn1` [Compound 169, 3-(4-(cyclopropanesulfonamido)-3-((4-fluorobenzyl)oxy)phenyl)-5-(pyrazin-2-ylamino)-1H-pyrazole-4-carboxamide]: less than 10 nM.
In the case of `CCS(=O)(=O)Nc1ccc(-c2n[nH]c(Nc3cnccn3)c2C(N)=O)cc1OCc1ccc(F)cc1C` [Compound 171, 3-(4-(ethylsulfonamido)-3-((4-fluoro-2-methylbenzyl)oxy)phenyl)-5-(pyrazin-2-ylamino)-1H-pyrazole-4-carboxamide] it was less than 10 nM; in that of `NC(=O)c1c(-c2ccc(NS(=O)(=O)CC(F)(F)F)c(OCc3ccc(F)cc3)c2)n[nH]c1Nc1cccc(C(F)F)n1` [Compound 173, 5-((6-(difluoromethyl)pyridine-2-yl)amino)-3-(3-((4-fluorobenzyl)oxy)-4-((2,2,2-trifluoroethyl)sulfonamido)phenyl)-1H-pyrazole-4-carboxamide], less than 10 nM; in that of `NC(=O)c1c(-c2ccc(NS(=O)(=O)C(F)F)c(Oc3ccc(F)cc3)c2)n[nH]c1Nc1cnccn1` [Compound 177, 3-(4-((difluoromethyl)sulfonamido)-3-(4-fluorophenoxy)phenyl)-5-(pyrazin-2-ylamino)-1H-pyrazole-4-carboxamide], less than 10 nM.
`CCS(=O)(=O)Nc1ccc(-c2n[nH]c(Nc3cccc(C(F)F)n3)c2C(N)=O)cc1OCc1ccc(F)cc1` [Compound 179, 5-((6-(difluoromethyl)pyridine-2-yl)amino)-3-(4-(ethylsulfonamido)-3-((4-fluorobenzyl)oxy)phenyl)-1H-pyrazole-4-carboxamide] displayed a Kd of less than 10 nM.
Compound `NC(=O)c1c(-c2ccc(NS(=O)(=O)CCC(F)(F)F)c(OCc3ccc(F)cc3)c2)n[nH]c1Nc1cccc(C(F)(F)F)n1` [Compound 182, 3-(3-((4-fluorobenzyl)oxy)-4-((3,3,3-trifluoropropyl)sulfonamido)phenyl)-5-((6-(trifluoromethyl)pyridine-2-yl)amino)-1H-pyrazole-4-carboxamide] yielded an equilibrium dissociation constant (Kd) of 10 to 1000 nM.
In the case of `NC(=O)c1c(-c2ccc(NS(=O)(=O)CCC(F)(F)F)c(OCc3ccc(F)cc3)c2)n[nH]c1Nc1cnccn1` [Compound 184, 3-(3-((4-fluorobenzyl)oxy)-4-((3,3,3-trifluoropropyl)sulfonamido)phenyl)-5-(pyrazin-2-ylamino)-1H-pyrazole-4-carboxamide] it was less than 10 nM; in that of `NC(=O)c1c(-c2ccc(NS(=O)(=O)CC(F)(F)F)c(OCc3ccc(F)cc3)c2)n[nH]c1Nc1ccnc(C(F)(F)F)n1` [Compound 186, 3-(3-((4-fluorobenzyl)oxy)-4-((2,2,2-trifluoroethyl)sulfonamido)phenyl)-5-((2-(trifluoromethyl)pyrimidin-4-yl)amino)-1H-pyrazole-4-carboxamide], less than 10 nM; in that of `NC(=O)c1c(-c2ccc(NS(=O)(=O)CCC(F)(F)F)cc2)n[nH]c1Nc1cccc(C(F)(F)F)n1` [Compound 189, 5-((6-(trifluoromethyl)pyridine-2-yl)amino)-3-(4-((3,3,3-trifluoropropyl)sulfonamido)phenyl)-1H-pyrazole-4-carboxamide], less than 10 nM.
With `CCS(=O)(=O)Nc1ccc(-c2n[nH]c(Nc3cnccn3)c2C(N)=O)cc1O[C@H](C)c1ccc(F)cc1` [Compound 193, (R)-3-(4-(ethylsulfonamido)-3-(1-(4-fluorophenyl)ethoxy)phenyl)-5-(pyrazin-2-ylamino)-1H-pyrazole-4-carboxamide], the Kd was less than 10 nM.
`CCS(=O)(=O)Nc1ccc(-c2n[nH]c(Nc3ccc(OC)nc3)c2C(N)=O)cc1OCc1ccc(F)cc1` [Compound 197, 3-(4-(ethylsulfonamido)-3-((4-fluorobenzyl)oxy)phenyl)-5-((6-methoxypyridin-3-yl)amino)-1H-pyrazole-4-carboxamide] yielded a Kd of less than 10 nM.
As to `CCS(=O)(=O)Nc1ccc(-c2n[nH]c(Nc3cnccn3)c2C(N)=O)cc1O[C@@H](C)c1ccc(F)cc1` [Compound 199, (S)-3-(4-(ethylsulfonamido)-3-(1-(4-fluorophenyl)ethoxy)phenyl)-5-(pyrazin-2-ylamino)-1H-pyrazole-4-carboxamide], the Kd is less than 10 nM.
In turn, `CCS(=O)(=O)Nc1ccc(-c2n[nH]c(Nc3ccccn3)c2C(N)=O)c(OCc2ccc(F)cc2)c1` [Compound 201] gave a Kd of less than 10 nM.
`CCS(=O)(=O)Nc1ccc(-c2n[nH]c(Nc3ccc(C(F)(F)F)cn3)c2C(N)=O)cc1OCc1ccc(F)cc1` [Compound 207] showed a Kd of 10 to 1000 nM.
`CCS(=O)(=O)Nc1ccc(-c2n[nH]c(Nc3cnccn3)c2C(N)=O)c(OCc2cccc(F)c2)c1` [Compound 208, 3-(4-(ethylsulfonamido)-2-((3-fluorobenzyl)oxy)phenyl)-5-(pyrazin-2-ylamino)-1H-pyrazole-4-carboxamide] had a Kd of 10 to 1000 nM.
`CCS(=O)(=O)Nc1ccc(-c2n[nH]c(Nc3cnccn3)c2C(N)=O)cc1OCc1ccc(OC(F)(F)F)cc1` [Compound 215, 3-(4-(ethylsulfonamido)-3-((4-(trifluoromethoxy)benzyl)oxy)phenyl)-5-(pyrazin-2-ylamino)-1H-pyrazole-4-carboxamide] yielded a Kd of 10 to 1000 nM.
In the case of `CCS(=O)(=O)Nc1ccc(-c2n[nH]c(Nc3cnccn3)c2C(N)=O)cc1OCc1cccc(C(F)(F)F)c1` [Compound 218, 3-(4-(ethylsulfonamido)-3-((3-(trifluoromethyl)benzyl)oxy)phenyl)-5-(pyrazin-2-ylamino)-1H-pyrazole-4-carboxamide], the Kd is 10 to 1000 nM.
`CCS(=O)(=O)Nc1ccc(-c2n[nH]c(Nc3ccc4cc(Cl)ccc4n3)c2C(N)=O)cc1OCc1ccc(F)cc1` [Compound 220, 5-((6-chloroquinolin-2-yl)amino)-3-(4-(ethylsulfonamido)-3-((4-fluorobenzyl)oxy)phenyl)-1H-pyrazole-4-carboxamide] gave a Kd of 10 to 1000 nM.
The compound `NC(=O)c1c(-c2ccc(NS(=O)(=O)C(F)F)c(OCc3ccc(F)c(F)c3)c2)n[nH]c1Nc1ccccn1` [Compound 226] showed a dissociation constant Kd of less than 10 nM.
In the case of `CCS(=O)(=O)Nc1ccc(-c2n[nH]c(Nc3cnccn3)c2C(N)=O)cc1OC(C)(C)c1ccc(F)cc1` [Compound 228, 3-(4-ethanesulfonamido-3-{[2-(4-fluorophenyl)propan-2-yl]oxy}phenyl)-5-[(pyrazin-2-yl)amino]-1H-pyrazole-4-carboxamide] it was less than 10 nM; in that of `C[C@H](Oc1cc(-c2n[nH]c(Nc3cccc(C(F)(F)F)n3)c2C(N)=O)ccc1NS(=O)(=O)C(F)F)c1ccc(F)cc1` [Compound 229, 3-[4-(difluoromethanesulfonamido)-3-[(1S)-1-(4-fluorophenyl)ethoxy]phenyl]-5-{[6-(trifluoromethyl)pyridin-2-yl]amino}-1H-pyrazole-4-carboxamide], less than 10 nM; in that of `CCS(=O)(=O)Nc1ccc(-c2n[nH]c(Nc3cnccn3)c2C(N)=O)cc1OC1CCCc2ccccc21` (stereo not shown) [Compound 232, 3-[4-ethanesulfonamido-3-(1,2,3,4-tetrahydronaphthalen-1-yloxy)phenyl]-5-[(pyrazin-2-yl)amino]-1H-pyrazole-4-carboxamide], less than 10 nM.
Take `NC(=O)c1c(-c2ccc(NS(=O)(=O)C(F)F)c(OCc3ccc(Cl)cc3)c2)n[nH]c1Nc1cnc(C(F)(F)F)cn1` [Compound 235, 3-(3-((4-chlorobenzyl)oxy)-4-((difluoromethyl)sulfonamido)phenyl)-5-((5-(trifluoromethyl)pyrazin-2-yl)amino)-1H-pyrazole-4-carboxamide]: the Kd was less than 10 nM.
`N#Cc1cccc(Nc2[nH]nc(-c3ccc(NS(=O)(=O)CC(F)(F)F)cc3)c2C(N)=O)n1` [Compound 237, 5-[(6-cyanopyridin-2-yl)amino]-3-[4-(2,2,2-trifluoroethanesulfonamido)phenyl]-1H-pyrazole-4-carboxamide]: the Kd was less than 10 nM.
Compound `NC(=O)c1c(-c2ccc(NS(=O)(=O)CC(F)(F)F)c(OCc3ccc(F)cn3)c2)n[nH]c1Nc1ccccn1` [Compound 240, 3-{3-[(5-fluoropyridin-2-yl)methoxy]-4-(2,2,2-trifluoroethanesulfonamido)phenyl}-5-[(pyridin-2-yl)amino]-1H-pyrazole-4-carboxamide] displayed a Kd of less than 10 nM.
The same measure for `C[C@H](Oc1cc(NS(=O)(=O)CC(F)(F)F)ccc1-c1n[nH]c(Nc2cnccn2)c1C(N)=O)c1ccc(F)cc1` [Compound 244, 3-{2-[(1S)-1-(4-fluorophenyl)ethoxy]-4-(2,2,2-trifluoroethanesulfonamido)phenyl}-5-[(pyrazin-2-yl)amino]-1H-pyrazole-4-carboxamide]: 10 to 1000 nM.
In the case of `C[C@H](Oc1cc(-c2n[nH]c(Nc3cccc(C(F)(F)F)n3)c2C(N)=O)ccc1NS(=O)(=O)CC(F)(F)F)c1ccc(F)cc1` [Compound 249, 3-{3-[(1S)-1-(4-fluorophenyl)ethoxy]-4-(2,2,2-trifluoroethane-sulfonamido)phenyl}-5-{[6-(trifluoromethyl)pyridin-2-yl]amino}-1H-pyrazole-4-carboxamide], the equilibrium dissociation constant (Kd) is less than 10 nM.
